{"sequences": {"note": "The chains behind the UniProt entries cited, without tags or fusion partners.", "UniProt P60953, whole entry": "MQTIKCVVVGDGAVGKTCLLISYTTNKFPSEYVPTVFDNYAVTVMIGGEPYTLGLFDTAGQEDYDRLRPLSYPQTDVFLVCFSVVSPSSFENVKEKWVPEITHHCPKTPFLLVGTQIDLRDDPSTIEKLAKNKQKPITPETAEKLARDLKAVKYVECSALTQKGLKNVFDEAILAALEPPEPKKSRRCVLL"}, "source": "PubChem BioAssay AID761", "about": "(NMMLSC, 2007)", "note": "Only a part is listed here, and it is no random draw. Activity calls are given as the source filed them.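 How the source made its calls: active means percent activity GTP binding at least 20 points away from the 100% baseline, either down as inhibitor or up as activator; inconclusive means compound flagged as likely green fluorescent from well-wide comparison; inactive means the rest.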"}
{"target": "Cell division control protein 42 homolog (Homo sapiens) (UniProt P60953)", "assay": "modulators of GTP binding to wildtype Cdc42, primary screen, biochemical, multiplex bead flow cytometry, Bodipy-GTP (AID 761);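 further: median bead fluorescence of bound Bodipy-FL-GTP at 100 nM; 0% = excess unlabeled GTP control and 100% = no compound control; below 100% means less GTP binding so inhibitor and above means activator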", "conditions": "GST-Cdc42 beads, at 10 µM, actives lie on both sides"}
{"smiles": "CP(=O)(Nc1ccc(SC(F)(F)F)cc1)Oc1ccccc1", "note": "(stereo not drawn)", "percent activity (GTP binding)": "inactive: 99%"}
{"smiles": "CCCOc1ccc(NP(C)(=O)Oc2ccc(Cl)cc2)cc1", "note": "(stereo not drawn)", "percent activity (GTP binding)": "inactive: 95%"}
{"smiles": "COc1ccccc1OP(C)(=O)Nc1c(C)cccc1C", "note": "(stereo not drawn)", "percent activity (GTP binding)": "inactive: 103%"}
{"smiles": "CN1CCCCC1COC(=O)C1(O)c2ccccc2CCc2ccccc21", "note": "(stereo not drawn)", "percent activity (GTP binding)": "inactive: 105%"}
{"smiles": "O=[N+]([O-])c1cc([N+](=O)[O-])c(-n2nnc3ccccc32)c([N+](=O)[O-])c1", "percent activity (GTP binding)": "inactive: 92%"}
{"smiles": "Cc1nc2ccc3ccccc3c2s1.O=[N+]([O-])c1cc([N+](=O)[O-])c(O)c([N+](=O)[O-])c1", "percent activity (GTP binding)": "inactive: 100%"}
{"smiles": "CCOC(=O)c1ccc(NP(C)(=O)Oc2cc(C)cc(C)c2)cc1", "note": "(stereo not drawn)", "percent activity (GTP binding)": "inactive: 99%"}
{"smiles": "Cc1cc(C)cc(OP(C)(=O)Nc2ccc(C)cc2C)c1", "note": "(stereo not drawn)", "percent activity (GTP binding)": "inactive: 101%"}
{"smiles": "Cc1ccc(C)c(NP(C)(=O)Oc2ccccc2)c1", "note": "(stereo not drawn)", "percent activity (GTP binding)": "inactive: 102%"}
{"smiles": "CP(=O)(Nc1cccc(Br)c1)Oc1ccccc1", "note": "(stereo not drawn)", "percent activity (GTP binding)": "inactive: 96%"}
{"smiles": "Cc1cc(C)cc(OP(C)(=O)Nc2ccccn2)c1", "note": "(stereo not drawn)", "percent activity (GTP binding)": "inactive: 98%"}
{"smiles": "CC1=NCCc2c1[nH]c1ccccc21.O=[N+]([O-])c1cc([N+](=O)[O-])c(O)c([N+](=O)[O-])c1", "percent activity (GTP binding)": "inactive: 96%"}
{"smiles": "O=[N+]([O-])c1ccc2c(c1)C=Nc1ccccc1O2", "percent activity (GTP binding)": "inactive: 92%"}
{"smiles": "CC(C)(C)c1ccc(OP(C)(=O)Nc2ccc(SC(F)(F)F)cc2)cc1", "note": "(stereo not drawn)", "percent activity (GTP binding)": "inactive: 93%"}
{"smiles": "Cc1cccc(C)c1OP(C)(N)=O", "note": "(stereo not drawn)", "percent activity (GTP binding)": "inactive: 95%"}
{"smiles": "Cc1cc(C)cc(OP(C)(N)=O)c1", "note": "(stereo not drawn)", "percent activity (GTP binding)": "inactive: 100%"}
{"smiles": "COc1ccccc1OP(C)(=O)Nc1cc(Cl)ccc1C", "note": "(stereo not drawn)", "percent activity (GTP binding)": "inactive: 102%"}
{"smiles": "COc1ccc(OP(C)(=O)Nc2cccc(F)c2)cc1", "note": "(stereo not drawn)", "percent activity (GTP binding)": "inactive: 98%"}
{"smiles": "COc1ccccc1OP(C)(=O)Nc1ccc(C)cc1", "note": "(stereo not drawn)", "percent activity (GTP binding)": "inactive: 98%"}
{"smiles": "Cc1ccc(NP(C)(=O)Oc2ccccc2)c(C)c1", "note": "(stereo not drawn)", "percent activity (GTP binding)": "inactive: 95%"}
{"smiles": "CCOC(=O)c1ccc(NP(C)(=O)Oc2ccccc2)cc1", "note": "(stereo not drawn)", "percent activity (GTP binding)": "inactive: 101%"}
{"smiles": "CCN(CC)CCCOC(=O)C(O)(c1ccccc1)c1ccccc1", "percent activity (GTP binding)": "inactive: 102%"}
{"smiles": "CP(=O)(NC(=O)Nc1ccccc1)Oc1ccccc1", "note": "(stereo not drawn)", "percent activity (GTP binding)": "inactive: 102%"}
{"smiles": "Cc1cc(C)cc(OP(C)(=O)Nc2ccc(SC(F)(F)F)cc2)c1", "note": "(stereo not drawn)", "percent activity (GTP binding)": "inactive: 95%"}
{"smiles": "Cc1cccc(C)c1OP(C)(=O)Nc1ccc(SC(F)(F)F)cc1", "note": "(stereo not drawn)", "percent activity (GTP binding)": "inactive: 96%"}
{"smiles": "CP(=O)(Oc1ccccc1)OC(c1ccccc1)C(F)(F)F", "note": "(stereo not drawn)", "percent activity (GTP binding)": "inactive: 99%"}
{"smiles": "CP(=O)(Nc1ccccn1)Oc1ccc(Cl)cc1", "note": "(stereo not drawn)", "percent activity (GTP binding)": "inactive: 94%"}
{"smiles": "CCOC(=O)c1ccc(NP(C)(=O)Oc2ccc(OC)cc2)cc1", "note": "(stereo not drawn)", "percent activity (GTP binding)": "inactive: 102%"}
{"smiles": "CCOP(C)(=S)SCC(=O)NC(C)C(=O)O", "note": "(stereo not drawn)", "percent activity (GTP binding)": "inactive: 109%"}
{"smiles": "CP(=O)(Nc1ccccc1Br)Oc1ccccc1", "note": "(stereo not drawn)", "percent activity (GTP binding)": "inactive: 106%"}
{"smiles": "COc1ccccc1OP(C)(=O)Nc1ccccc1", "note": "(stereo not drawn)", "percent activity (GTP binding)": "inactive: 97%"}
{"smiles": "CP(=S)(Nn1cnnc1)Oc1ccccc1", "note": "(stereo not drawn)", "percent activity (GTP binding)": "inactive: 103%"}
{"smiles": "CCOC(=O)c1ccc(NP(C)(=O)Oc2ccc(Cl)cc2)cc1", "note": "(stereo not drawn)", "percent activity (GTP binding)": "inactive: 99%"}
{"smiles": "CP(=O)(OC12CC3CC(CC(C3)C1)C2)OC12CC3CC(CC(C3)C1)C2", "percent activity (GTP binding)": "inactive: 100%"}
{"smiles": "CP(=O)(Oc1ccccc1)N1CCOC1=O", "note": "(stereo not drawn)", "percent activity (GTP binding)": "inactive: 99%"}
{"smiles": "CCc1ccc(OP(C)(=O)Nc2cccnc2)cc1", "note": "(stereo not drawn)", "percent activity (GTP binding)": "inactive: 93%"}
{"smiles": "CCN(CC)CC(O)COC(=O)C(O)(c1ccccc1)C1CCCCC1", "note": "(stereo not drawn)", "percent activity (GTP binding)": "inactive: 106%"}
{"smiles": "COc1ccc(OP(C)(=O)Nc2ccc(Br)cc2)cc1", "note": "(stereo not drawn)", "percent activity (GTP binding)": "inactive: 98%"}
{"smiles": "CN(C)C(=O)c1c([N+](=O)[O-])cc([N+](=O)[O-])cc1[N+](=O)[O-]", "percent activity (GTP binding)": "inactive: 95%"}
{"smiles": "CC(C)(C)c1ccc(OP(C)(=O)O)cc1", "percent activity (GTP binding)": "inactive: 111%"}
{"smiles": "COc1ccccc1OP(C)(=O)Nc1ccccc1Br", "note": "(stereo not drawn)", "percent activity (GTP binding)": "inactive: 94%"}
{"smiles": "CP(=O)(Nc1ccc(Cl)cc1)Oc1ccc(F)cc1", "note": "(stereo not drawn)", "percent activity (GTP binding)": "inactive: 102%"}
{"smiles": "COc1ccc(OP(C)(=O)Nc2ccccn2)cc1", "note": "(stereo not drawn)", "percent activity (GTP binding)": "inactive: 95%"}
{"smiles": "CN(C)CCOC(=O)C(O)(c1ccccc1)C1CCCC1", "note": "(stereo not drawn)", "percent activity (GTP binding)": "inactive: 100%"}
{"smiles": "CP(=O)(Nc1ccccn1)Oc1ccccc1", "note": "(stereo not drawn)", "percent activity (GTP binding)": "inactive: 105%"}
{"smiles": "COc1ccccc1OP(C)(=O)Nc1ccc(C)cc1C", "note": "(stereo not drawn)", "percent activity (GTP binding)": "inactive: 104%"}
{"smiles": "CCc1ccc(OP(C)(=O)O)cc1", "percent activity (GTP binding)": "inactive: 98%"}
{"smiles": "O=[N+]([O-])c1cc([N+](=O)[O-])c(Nc2ccccn2)c([N+](=O)[O-])c1", "percent activity (GTP binding)": "inactive: 97%"}
{"smiles": "Cc1c(NP(C)(=O)Oc2ccc(C(C)C)cc2)c(=O)n(-c2ccccc2)n1C", "note": "(stereo not drawn)", "percent activity (GTP binding)": "inactive: 101%"}
{"smiles": "COc1ccccc1OP(C)(=O)Nc1ccc(C)c(C)c1", "note": "(stereo not drawn)", "percent activity (GTP binding)": "inactive: 99%"}
{"smiles": "COc1ccc(OP(C)(=O)Nc2ccccc2Br)cc1", "note": "(stereo not drawn)", "percent activity (GTP binding)": "inactive: 101%"}
{"smiles": "Cc1cc(C)cc(OP(C)(=O)Nc2cccc(C(F)(F)F)c2)c1", "note": "(stereo not drawn)", "percent activity (GTP binding)": "inactive: 100%"}
{"smiles": "CP(=O)(OCCOc1ccccc1)OCCOc1ccccc1", "percent activity (GTP binding)": "inactive: 93%"}
{"smiles": "CP(=O)(Nc1ccc(Cl)cc1Cl)Oc1ccccc1", "note": "(stereo not drawn)", "percent activity (GTP binding)": "inactive: 97%"}
{"smiles": "Cc1nc2ccc3ccccc3c2o1.O=[N+]([O-])c1cc([N+](=O)[O-])c(O)c([N+](=O)[O-])c1", "percent activity (GTP binding)": "inactive: 100%"}
{"smiles": "CCOC(=O)c1ccc(NP(C)(=O)Oc2ccc(F)cc2)cc1", "note": "(stereo not drawn)", "percent activity (GTP binding)": "inactive: 101%"}
{"smiles": "COc1ccc(OP(C)(=O)Nc2ccc(SC(F)(F)F)cc2)cc1", "note": "(stereo not drawn)", "percent activity (GTP binding)": "inactive: 92%"}
{"smiles": "CP(=O)(Nc1ccccc1)Oc1ccc(F)cc1", "note": "(stereo not drawn)", "percent activity (GTP binding)": "inactive: 105%"}
{"smiles": "CCN(CC)CCCOC(=O)C(O)(c1ccccc1)C1CCCCC1", "note": "(stereo not drawn)", "percent activity (GTP binding)": "inactive: 100%"}
{"smiles": "CP(=O)(Nc1ccccc1F)Oc1ccccc1", "note": "(stereo not drawn)", "percent activity (GTP binding)": "inactive: 97%"}
{"smiles": "O=C(OCCN1CCN(CCOCc2ccccc2)CC1)C(O)(c1ccccc1)c1ccccc1", "percent activity (GTP binding)": "inactive: 105%"}
{"smiles": "CCOP(C)(=S)SCC(=O)NC(C)(CC)C(=O)O", "note": "(stereo not drawn)", "percent activity (GTP binding)": "inactive: 97%"}
{"smiles": "Cc1ccccc1NP(C)(=O)Nc1ccccc1C", "percent activity (GTP binding)": "inactive: 99%"}
{"smiles": "CP(=O)(Nc1ccc2c(c1)OCCO2)Oc1ccccc1", "note": "(stereo not drawn)", "percent activity (GTP binding)": "inactive: 100%"}
{"smiles": "CN(C)CCOC(=O)C(O)(c1ccccc1)C1CCCCC1", "note": "(stereo not drawn)", "percent activity (GTP binding)": "inactive: 101%"}
{"smiles": "COc1ccc(NP(C)(=O)Oc2ccccc2OC)cc1", "note": "(stereo not drawn)", "percent activity (GTP binding)": "inactive: 97%"}
{"smiles": "COc1ccc(OP(C)(=O)Nc2cccc(Br)c2)cc1", "note": "(stereo not drawn)", "percent activity (GTP binding)": "inactive: 101%"}
{"smiles": "O=[N+]([O-])c1cc([N+](=O)[O-])c(NCC2CCS(=O)(=O)C2)c([N+](=O)[O-])c1", "note": "(stereo not drawn)", "percent activity (GTP binding)": "inactive: 95%"}
